## Yeast mating assay B: variants of the scFv Ab-14

Values reported by Li et al. 2023, doi:10.1038/s41467-023-39022-2 (FLAb copy).

All variants were tested on one target, the spike HR2 peptide PDVDLGDISGINAS (SARS-CoV-2).

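Designed CDR sequences, proposed from the first random library and measured here. Their group label is 14L_En_Gibbs (En: ensemble of fine-tuned language models; Gibbs: Gibbs sampling). The assay is AlphaSeq: two haploid yeast populations carry antibody and antigen on their surface. Pairs that bind mate more often; barcode pairs of the diploids are counted by sequencing. Read counts were normalised to the haploid input and turned into Kd by a linear fit to BCL2-family pairs of known affinity, for each replicate. Mating was done six times.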

Parent: Ab-14, a human scFv built as VH, a 15-residue (Gly4Ser)3 linker, VL. Only the CDRs of the light chain vary.
VH: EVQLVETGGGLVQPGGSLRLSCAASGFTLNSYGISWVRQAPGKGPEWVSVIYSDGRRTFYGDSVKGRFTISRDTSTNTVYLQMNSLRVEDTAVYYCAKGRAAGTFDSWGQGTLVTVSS
VL: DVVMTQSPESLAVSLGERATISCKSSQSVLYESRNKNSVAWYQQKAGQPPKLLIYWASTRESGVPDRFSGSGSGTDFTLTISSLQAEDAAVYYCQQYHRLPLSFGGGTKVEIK

Variants are written as CDR1, CDR2 and CDR3 of the light chain (limits as in the source). Parent: KSSQSVLYESRNKNSVA, WASTRES, QQYHRLPLS.
Affinities are written as log10 Kd with Kd in nM; a lower number is a better binder.
A mean of the replicates is given; it leaves out those without a signal.
Where no diploid with the target was found in that replicate, the entry reads "ND": below detection, most likely a poor binder, though not proof of it.

CDR-L1 | CDR-L2 | CDR-L3 | replicates, log10 nM | mean log10 Kd (nM) | signal with controls
MIEIIQDGYDEMRSAIA | DTSLVRM | QQYYRLPLM | ND / ND / ND / ND / ND / ND | ND | 0 of 18
IFEQGQWNGQQNHNAMA | NGHTRMQ | QQYFKLPLV | 1.02 / 0.94 / 0.68 / 0.74 / 0.79 / 1.04 | 0.87 | 2 of 18 (2.94)
KLNQDPVLKTNINNSVA | EHSEVFQ | QQYAHLPLQ | ND / 2.56 / 2.11 / ND / ND / 2.89 | 2.52 | 1 of 18 (2.24)
KLQNLMGTMGKQNQNIA | QGAITRV | QQYQRLPLW | 0.55 / 0.45 / 0.62 / 0.58 / 0.33 / 0.91 | 0.57 | 0 of 18
ALELEEMQMMKDINSIA | NTEYKTN | QQYVRLPFS | 0.75 / 0.42 / 0.67 / 0.65 / 0.48 / 0.57 | 0.59 | 2 of 18 (3.19)
KINGVLINNGIDMNAIA | QEHISNL | QQYFHLPLS | 1.48 / 2.32 / ND / 1.47 / 2.53 / 2.60 | 2.08 | 0 of 18
MLTMFANENAGWSNNIA | DTNNLNT | QQYQRLPFM | 2.30 / 1.88 / 1.40 / 1.70 / 1.69 / 2.41 | 1.90 | 0 of 18
NVSIKEPGNWRMMDSVA | HSSLRAE | QQYWRLPLM | 0.43 / 0.29 / 0.23 / 0.22 / 0.13 / 0.29 | 0.27 | 0 of 18
KLEDQMQTSIASDNSVA | DTNMFHE | QQYGRLPLV | 2.72 / 2.06 / 2.14 / 2.34 / ND / 2.11 | 2.28 | 0 of 18
SVTRETDGNGLKWNSVA | DAAEAMT | QQYFRLPLT | 0.26 / 0.16 / 0.44 / 0.23 / 0.02 / 0.66 | 0.30 | 0 of 18
HIELGTWGVGKFDSSVA | HASQRQE | QQYDQLPLT | 1.00 / 0.57 / 0.56 / 0.81 / 0.71 / 0.86 | 0.75 | 1 of 18 (2.84)
QIDSFYQHGTDAKQAMA | DVSVRDQ | QQYSRLPLS | 0.11 / -0.52 / -0.40 / -0.32 / -0.21 / -0.35 | -0.28 | 0 of 18
QINVNRLMNYLMNNAIA | GKTLRVD | QQYARLPLS | 1.00 / 1.03 / 2.19 / 0.87 / 2.07 / 1.85 | 1.50 | 0 of 18
GILSQMDGPTEYKENIA | NGTERLP | QQYQRLPLT | 1.03 / 0.93 / 0.67 / 0.45 / 1.23 / 1.06 | 0.89 | 0 of 18
KMTEQLLNGEREPSNIA | AQVIGSD | QQYHHLPLI | ND / 1.93 / 1.51 / ND / 3.30 / ND | 2.25 | 0 of 18
RIMYEQFGNTYSVNNVA | QAHVRAY | QMYNRLPLS | ND / ND / ND / ND / ND / ND | ND | 0 of 18
HVAMELAEEKNSYRNIA | DASMRLA | QQYVRLPLG | 0.41 / 0.33 / -0.05 / -0.10 / 0.11 / 0.33 | 0.17 | 1 of 18 (2.72)
AIYSTGYQVDSQMQAIA | DGHERIS | QQYFRLPLN | 0.49 / 0.66 / 0.01 / 0.47 / -0.08 / 0.64 | 0.36 | 1 of 18 (1.59)
DVHALMNHSSDLMQNIA | DESCRDA | QQYERLPLS | 1.86 / 1.67 / 1.52 / 1.88 / 1.94 / 1.75 | 1.77 | 2 of 18 (2.12)
SLRLKELGMSYNANQVA | DSENRIK | QQYYRLPLM | 1.12 / 1.19 / 1.17 / 0.89 / 0.96 / 1.13 | 1.08 | 4 of 18 (3.22)
HMNHEYLEYSNYEGNIA | HGSQRLY | QQYSHLPLS | 0.25 / 0.41 / 0.06 / 0.21 / 0.40 / 0.15 | 0.25 | 0 of 18
KLHHYKLGENGMRGSVA | NATIRDQ | QQYFRLPLF | 0.83 / 0.54 / 0.21 / 0.37 / 0.45 / 0.54 | 0.49 | 4 of 18 (2.69)
KLSWKSLHGDLRWSAVA | NESVRLA | QQYFRLPIQ | 0.95 / 0.51 / 0.81 / 0.62 / 0.93 / 1.06 | 0.81 | 0 of 18
HLLYAFNTGSLRDNNVA | EGETVLD | QQYFRLPIT | 0.99 / 1.09 / 2.37 / ND / ND / ND | 1.48 | 0 of 18
KMSGNLTDQENIKHSIA | EQVLAME | QQYMKLPLD | 0.99 / 0.95 / 1.55 / ND / ND / ND | 1.16 | 0 of 18
HIDQVKAEQKTAENNIA | SGAQRVW | QQYSRLPFI | 0.33 / 0.23 / 0.09 / 0.05 / 0.25 / 0.27 | 0.21 | 0 of 18
RIQMGDLEGRTAWNSIA | DGEEIYR | QQYVRLPLY | 2.24 / 1.35 / 2.73 / 1.39 / 1.33 / 1.45 | 1.75 | 0 of 18
KLQLNVVDGWAMHRNIA | GDNHRAD | QQYYNLPLM | 0.98 / 0.85 / 0.91 / 0.76 / 0.69 / 0.94 | 0.86 | 1 of 18 (2.39)
HMKDMPGFGPQTYSSIA | HAEIREP | QQYYRLPLM | 0.39 / 0.49 / 0.23 / 0.48 / 0.35 / 0.43 | 0.40 | 1 of 18 (2.98)
NITQIFDNMGDQRSNVA | NGETLFH | QQYARLPFL | 0.45 / 0.81 / 0.50 / 1.15 / 0.70 / 0.71 | 0.72 | 0 of 18
RVTILSDPYLENRNAIA | QTSLRAH | QQYQMLPLT | 0.57 / 0.51 / 0.53 / 0.37 / 0.43 / 0.73 | 0.53 | 6 of 18 (2.91)
KLTVAMASWRGQRHNIA | EATVTAP | QQYSRLPIS | 0.83 / 0.95 / 1.51 / 1.59 / 0.56 / 1.11 | 1.09 | 1 of 18 (1.93)
RIMYEYDSSVDKYNAVA | QAHIRTQ | QHYNRLPLS | 1.47 / 2.03 / 0.70 / 1.51 / 0.55 / 0.66 | 1.15 | 0 of 18
HFAYQLQSLYNSKQNVA | NASTVMT | QHYNRLPLS | 2.18 / ND / 1.62 / 2.05 / 1.91 / 2.11 | 1.98 | 1 of 18 (3.09)

A selection of 6 entries from above:

CDR-L1	CDR-L2	CDR-L3	replicates, log10 nM	mean log10 Kd (nM)	signal with controls
ALELEEMQMMKDINSIA	NTEYKTN	QQYVRLPFS	0.75 / 0.42 / 0.67 / 0.65 / 0.48 / 0.57	0.59	2 of 18 (3.19)
MLTMFANENAGWSNNIA	DTNNLNT	QQYQRLPFM	2.30 / 1.88 / 1.40 / 1.70 / 1.69 / 2.41	1.90	0 of 18
QINVNRLMNYLMNNAIA	GKTLRVD	QQYARLPLS	1.00 / 1.03 / 2.19 / 0.87 / 2.07 / 1.85	1.50	0 of 18
HIDQVKAEQKTAENNIA	SGAQRVW	QQYSRLPFI	0.33 / 0.23 / 0.09 / 0.05 / 0.25 / 0.27	0.21	0 of 18
NVSIKEPGNWRMMDSVA	HSSLRAE	QQYWRLPLM	0.43 / 0.29 / 0.23 / 0.22 / 0.13 / 0.29	0.27	0 of 18
KLEDQMQTSIASDNSVA	DTNMFHE	QQYGRLPLV	2.72 / 2.06 / 2.14 / 2.34 / ND / 2.11	2.28	0 of 18

Of ten entries with the parent sequence, four were seen in most replicates (averages 0.34 to 2.37), three in one and three in none, so single entries are noisy.
Values of this round are not directly comparable with the first-round values of the same sequences.
In the paper, a design with two or fewer of six values counts as a poor binder.
Nonspecific signal, from three strains lacking the peptide, appeared in 4% of pairings of all light chain designs, centred on 2.64 (5% of these signals below 1.59); values are not corrected for it. For each scFv, signals with the empty controls are counted beside the result, with their mean in brackets.